Test system: Human ES or iPS cells
Assay: Marker gene expression during step-wise differentiation of human pluripotent stem cells to somatotrophs
Format: cell-based
Conditions: BMP2 added to FGF8 treatment, FIG. 5
Description: Human ES or iPS cells were expanded in E8 media on matrigel.
On day 0, cells were changed to E6 media where BMP4 (5 ng/ml) and SB43152 (10 μM) were added, with daily medium and factors change.
On day 3, BMP4 was removed and the following factors added: FGF8 (100 ng/ml); FGF10 (50 ng/ml); FGF18 (50 ng/ml); Sonic hedgehog (SHH) (100 ng/ml) or SAG (Smoothened Agonist) (100 nM); LDN193189 (250 nM). Media and factors were changed every other day.
Media and factors are changed every other day.
On day 15, the following factors were used: Retinoic acid (1 μM); Thyroid hormone T3 (10 nM); Dexamethasone (1 μM); cyclic AMP (100 μg/ml); DPN (0.1 nM); Growth Hormone Releasing Hormone (GHRH) (1 μM). Media and factors were changed every other day.
On day 29, the cells entered the maturation phase and could be maintained in the same factors for a variable period ranging from 1-4 weeks. […] They could be subjected to FACS sorting for GHRH in order to obtain a pure cell population of somatotrophs. Cells remained on matrigel for the duration of the protocol.
In order to derive GH cells, the strategy was to first differentiate human pluripotent stem cells to pre-placodal ectoderm and anterior pituitary progenitors. The cells were further differentiated to PROP1 lineage, and then to PIT1 lineage. The cells were then terminally differentiated to GH cells. […]

B1: BMP2: BMP molecule, ventralizing agent (protein, UniProt P12643 283-396, looked up)
Bone morphogenetic protein 2: QAKHKQRKRLKSSCKRHPLYVDFSDVGWNDWIVAPPGYHAFYCHGECPFPLADHLNSTNHAIVQTLVNSVNSKIPKACCVPTELSAISMLYLDENEKVVLKNYQDMVVEGCGCR
For B1, the “effects of FGF8 on PROP1, PIT1 and POMC expression” value was “neutralized”.
